44 compounds from PubChem BioAssay AID624171 (National Center for Advancing Translational Sciences (NCATS), 2012) can be followed below.

The list shows a part of the results, in another mix than the full data. Active and inactive are the calls of the source. Calls come from the whole dose curve; as a rule, active = well fitted activation curve with a large enough effect; inconclusive = small, poorly fitted or top-dose-only effect; inactive = flat fitted curve, though single readings scatter.

The experiment can be described thus: qHTS of Nrf2 Activators. Note: % of control where 0% means no effect; nearly all actives have a fitted effect of over 65% in size. The note with it: AREc32 ARE-luciferase reporter (MCF7-derived line), luminescence, 24 h; at 46.1 µM (top of the series) unless noted. The source says: Many diseases have some form of oxidative stress injury and ties to inflammation, causing a host of problems for the patient. The antioxidant response element (ARE) plays an important role in alleviating the harmful effects of oxidative stress. The antioxidant response element (ARE) is a transcriptional regulatory element involved in the activation of genes coding for a number of antioxidant proteins and detoxifying enzymes. These enzymes work in concert to protect tissues from oxidative insults and chemical toxicities in human hepatocytes and immune cells. The protective effects of ARE activation are primarily triggered through Nrf2 (NF-E2-related factor) binding to and activating AREs. It is known that Nrf2 controls the production of over 250 antioxidant and detoxification proteins (Hu et al., 2006), thereby protecting tissues by increasing cellular antioxidant content and suppressing inflammatory signaling pathways. The transcription factor Nrf2 is a central link between oxidative chemicals, such as phenolic antioxidants and electrophilic compounds, and the activation of ARE. Nrf2 levels are constitutively low as a consequence of its interaction with Keap1, which targets its degradation (Zipper and Mulcahy, 2002). Electrophiles react with key cysteine residues in Keap1, releasing Nrf2 and allowing its translocation to the nucleus. Once within the nucleus, Nrf2 complexes with coactivators such as p300, and binds to the AREs to induce gene transcription of cytoprotective enzymes, resulting in the prevention of toxicity. Activation of Nrf2 protects tissues by increasing cellular antioxidant content and suppressing inflammatory signaling pathways. Identifying novel and potent Nrf2 activators by using the AREc32 cell line to detect ARE activation by small molecules will lead to the identification and development of probes to study protective pathways in multiple tissues. These specific probes are essential to study the ARE pathway, and eventually to determine whether this pathway does activate genes that could protect against a host of diseases, including cardiovascular diseases, obesity, diabetes, Alzheimer's, and Parkinson's disease.
This project's aim is to identify novel and potent Nrf2 activators by using the AREc32 cell line to detect ARE activation by small molecules, which will lead to the identification and development of probes to study the ARE pathway.
NIH Chemical Genomics Center [NCGC]
NIH Molecular Libraries Probe Centers Network [MLPCN]
Assay Submitter (PI): Curtis Klaassen, University of Kansas Medical Center
5 uL of 1000 cells/well of AREc32_Fluc cells are seeded into 1536-well plate in OPTI-MEM medium with 5% FBS. The plates are incubated overnight at 37 deg C with 5% CO2. Then through pin tool transfer, 23 nL of compounds are added to each well before a 24 hr incubation at 37 deg C with 5% CO2. After the addition of 2.5 uL of Steady-Glo. the plates are kept at RT for 30 min, before they are read on the ViewLux.
Regarding `CSc1ccccc1C(=O)NCC1(N2CCCCC2)CCCCC1`, the activation was inactive: -0.678%. As for `Cc1cccc(NC2(C#N)CCN(Cc3ccccc3)CC2)c1`, the activation is inactive: 0.22%. Next, `O=C(NCC1(N2CCCCC2)CCCCC1)c1ccc(=O)[nH]c1`: inactive: -0.0733%; `O=C(NCC1(N2CCCCC2)CCCCC1)c1cccs1`: inactive: -0.292%; `CCCCn1nnnc1C(CC)N1CCC(n2c(=O)[nH]c3ccccc32)CC1` (centres undefined): inactive: 0.337%. Consider `CCCCn1nnnc1C(c1cccs1)N1CCC(n2c(=O)[nH]c3ccccc32)CC1` (centres undefined), for which the activation is inactive: 0.704%. With `COc1ccc(C(=O)NCC2(N3CCCCC3)CCCCC2)cc1`, the activation was inactive: 0.589%. As to `CC(C)(C)OC(=O)N1CCC(N(C(=O)c2ccccc2)c2ccc(F)cc2)CC1`, the activation was inactive: -0.776%. To `COc1ccc(C(=O)NCC2(N3CCCCC3)CCCCC2)c(OC)c1OC` belongs inactive: -1.12%.

Turning to `CCC(c1nnnn1C1CCCC1)N1CCC(n2c(=O)[nH]c3ccccc32)CC1` (centres undefined), the activation was inactive: 0.19%. Consider `CCOC(=O)N1CCC(Nc2ccc(OC)cc2)CC1`, for which the activation is inactive: -0.476%.

Consider `CCCCn1nnnc1C(c1ccc(OC)cc1)N1CCC(n2c(=O)[nH]c3ccccc32)CC1` (centres undefined), for which the activation is inactive: 4.2%. In the case of `N#CC1(Nc2ccccc2)CCN(Cc2ccccc2)CC1`, the activation is inactive: -0.523%.

`O=C(NCC1(N2CCCCC2)CCCCC1)c1ccc(Cl)s1`: the activation is inactive: 0.238%.

As for `O=C(OC1CN2CCC1CC2)C1c2ccccc2Oc2ccccc21` (centres undefined), the activation was inactive: 0.341%.

As to `O=c1[nH]c2ccccc2n1C1CCN(C(c2cc3ccccc3o2)c2nnnn2C2CCCCC2)CC1` (centres undefined), the activation was inactive: -1.2%. In the case of `COc1ccc(Cl)cc1C(=O)NCC1(N2CCOCC2)CCCCC1`, the activation was inactive: -0.153%. For `O=C1C(O)=C([N+](=O)[O-])C(=O)C(O)=C1[N+](=O)[O-]`, the activation is inactive: 0.288%. Consider `O=C(NCC1(N2CCOCC2)CCCCC1)c1cc2ccccc2o1`, for which the activation was inactive: 0.79%. Next, `O=C(NCC1(N2CCCCC2)CCCCC1)c1ccc(Cl)nc1`: inactive: -0.424%; `O=c1[nH]c2ccccc2n1C1CCN(C(c2ccccc2OC(F)(F)F)c2nnnn2C2CCCCC2)CC1` (centres undefined): inactive: -0.701%. For `Cc1cc(C)cc(N(C(=O)c2ccccc2)C2CCN(C(=O)OC(C)(C)C)CC2)c1`, the activation is inactive: 3.11%.

In the case of `O=P1(N(CCCl)CCCl)SCCCS1`, the activation was inactive: 2.54%. Take `CCCCn1nnnc1C(c1cc2ccccc2o1)N1CCC(n2c(=O)[nH]c3ccccc32)CC1` (centres undefined): the activation is inactive: -3.3%. As to `CCCCOc1ccc(C(=O)NCC2(N3CCOCC3)CCCCC2)cc1`, the activation was inactive: -1.4%.

In the case of `O=C(NCC1(N2CCCCC2)CCCCC1)c1ccc(F)cc1`, the activation was inactive: -0.594%. On to `COc1ccc(NC2CCN(CCc3ccccc3)CC2)c(OC)c1`, for which the activation was inactive: 0.349%.

As for `CCOC(=O)N1CCC(Nc2ccc(F)cc2)CC1`, the activation is inactive: 0.286%. `COc1ccccc1C(=O)NCC1(N2CCOCC2)CCCCC1`: the activation was inactive: 0.497%. Regarding `CCOc1ccc(C)cc1CN(CCCl)CCCl`, the activation was inactive: 0.0585%. On to `CC(C)(C)n1nnnc1C(c1ccccc1)N1CCC(n2c(=O)[nH]c3ccccc32)CC1` (centres undefined), for which the activation was inactive: 0.545%. `O=C(NCC1(N2CCOCC2)CCCCC1)c1ccc(Cl)cc1`: the activation is inactive: 0.0517%. With `O=C1CCN(Cc2ccccc2)CC1`, the activation was inactive: 0.812%. Next, `O=c1[nH]c2ccccc2n1C1CCN(C(c2cccc3ccccc23)c2nnnn2C2CCCC2)CC1` (centres undefined): inactive: 0.204%. In the case of `CCOC(=O)N1CCC(Nc2cccc(C)c2)CC1`, the activation was inactive: 0.0108%.

For `COc1cc(C(=O)NCC2(N(C)C)CCCCC2)ccc1OC(F)F`, the activation was inactive: 1.61%. Turning to `O=c1[nH]c2ccccc2n1C1CCN(C(c2ccccc2)c2nnnn2C2CCCCC2)CC1` (centres undefined), the activation is inactive: 0.447%. To `CSc1ccc(C(=O)NCC2(N3CCOCC3)CCCCC2)cc1` belongs inactive: 0.0908%; to `CCOc1ccc(C(=O)NCC2(N3CCOCC3)CCCCC2)cc1`, inactive: -1.24%; to `O=C(NCC1(N2CCCCC2)CCCCC1)c1cccc([N+](=O)[O-])c1`, inactive: -1.32%. Take `CCN1CCC(Nc2ccc(Cl)cc2)CC1`: the activation is inactive: -0.111%. For the compound `O=c1[nH]c2ccccc2n1C1CCN(C(c2ccccc2OC(F)(F)F)c2nnnn2C2CCCC2)CC1` (centres undefined), the activation was inactive: 0.436%. As to `N#CC1(Nc2ccccc2)CCN(CCc2ccccc2)CC1`, the activation was inactive: 2.28%. For the compound `CC(C)(C)n1nnnc1C(c1ccccc1OC(F)(F)F)N1CCC(n2c(=O)[nH]c3ccccc32)CC1` (centres undefined), the activation is inactive: -3.29%.
